The target in this assay is cAMP-dependent protein kinase type II-beta regulatory subunit (Homo sapiens) (UniProt P31323). In words: activators of PKA-R2B holoenzyme, confirmation, biochemical, fluorescence polarization, human (AID 504797). The settings on record: PKA-R2B complex, at 11.4 µM, active compounds read high. On the technique in general: In fluorescence polarisation assays a small probe gives low polarisation when free and higher when bound to something large.

Only a part is listed here, and it is no random draw. Calls of active or inactive are those of the source. No stated cut-off is given here; in the data, active means activation above about 19%; inactive means the rest.

For the compound `COc1ccc(NP(C)(=O)Oc2ccccc2OC)cc1` (stereo unspecified), the activation was inactive: 6.16%.

Values taken from PubChem BioAssay AID504797 (The Scripps Research Institute Molecular Screening Center, 2011).
